The subject of the assay is E. coli ATCC25922. To be noted: LB broth, 1 × 10^5 CFU/mL, 37°C, 16–24 h, triplicate. On the procedure: The MIC values of peptides against E. coli ATCC25922 were determined by the microtiter broth dilution method. The bacteria were grown to the mid-logarithmic phase and diluted into the Luria-Bertani (LB) broth at 1 × 10^5 CFU/mL. […] Polymyxin and the sterile aqua distillate were tested as control. All assays were performed in triplicate.

The structures appear in SMILES notation. ≈ marks a conversion by molar mass, not a printed value.

Usually MIC stands for the least concentration at which growth counts as inhibited. Low values mean greater potency, high ones weaker potency. Compound `CC[C@@H](C)[C@@H](NC(=O)[C@@H](CCCNC(=N)N)NC(=O)[C@H](NC(=O)[C@@H](C)NC(=O)[C@H](NC(=O)[C@H](NC(=O)[C@@H](CC(C)C)NC(=O)[C@@H](CCCNC(=N)N)NC(=O)[C@H](N)C(C)C)[C@H](C)CC)C(C)C)C(C)C)C(=O)N[C@H](Cc1c[nH]c2ccccc12)C(=O)N[C@H](CCCNC(=N)N)C(=O)N[C@H](CCCNC(=N)N)C(N)=O` [D1018] showed an MIC of 8 µg/mL (≈ 5.21 µM).

These data come from paper PMC9751974 (Frontiers in Microbiology, 2022).
